Like-named read-outs stand apart in the source and are kept apart here.
Columns and labels:
Format in all cases: biochemical
[1] = molecular target: purified recombinant human TG2 (tissue transglutaminase) (Homo sapiens, UniProt P21980); assay: TG2 transamidation activity, biotin X-cadaverine incorporation into N,N′-dimethylcasein (Example 2); details: read-out: IC50 for TG2, recombinant human TG2 400 ng/ml, 2 h at 37° C.
transglutaminase 1 = transglutaminase 1 (Homo sapiens, UniProt P22735); assay: TG-CovTest commercial microassay, transglutaminase 1; details: read-out: Estimated IC50 TG1, tested form: bromide
transglutaminase 3 = transglutaminase 3 (Homo sapiens, UniProt Q08188); assay: TG-CovTest commercial microassay, transglutaminase 3; details: read-out: Estimated IC50 TG3, tested form: bromide
Factor X111a = Factor X111a (Homo sapiens, UniProt P00488); assay: TG-CovTest commercial microassay, Factor X111a; details: read-out: Estimated IC50 FXIII, tested form: bromide

The chains behind the UniProt entries cited, without tags or fusion partners. Residues count along the entry.
UniProt P21980, whole entry: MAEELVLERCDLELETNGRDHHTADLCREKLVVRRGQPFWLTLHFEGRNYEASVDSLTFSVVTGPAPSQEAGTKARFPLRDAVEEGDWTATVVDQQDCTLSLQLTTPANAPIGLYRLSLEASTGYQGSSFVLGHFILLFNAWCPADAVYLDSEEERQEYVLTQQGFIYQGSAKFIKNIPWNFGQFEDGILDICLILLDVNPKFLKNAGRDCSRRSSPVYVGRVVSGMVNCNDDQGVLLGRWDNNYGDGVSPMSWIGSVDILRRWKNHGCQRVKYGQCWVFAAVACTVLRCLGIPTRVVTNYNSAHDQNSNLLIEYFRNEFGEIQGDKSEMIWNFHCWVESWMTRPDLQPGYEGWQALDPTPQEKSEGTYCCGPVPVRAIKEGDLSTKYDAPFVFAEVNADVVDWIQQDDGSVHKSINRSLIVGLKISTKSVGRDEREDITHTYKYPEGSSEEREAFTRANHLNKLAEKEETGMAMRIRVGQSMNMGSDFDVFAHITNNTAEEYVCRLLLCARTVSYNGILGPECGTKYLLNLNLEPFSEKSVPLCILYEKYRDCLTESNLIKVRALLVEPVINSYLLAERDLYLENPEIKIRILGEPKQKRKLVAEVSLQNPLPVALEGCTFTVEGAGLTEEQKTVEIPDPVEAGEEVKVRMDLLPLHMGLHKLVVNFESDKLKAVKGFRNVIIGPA
UniProt P22735, whole entry: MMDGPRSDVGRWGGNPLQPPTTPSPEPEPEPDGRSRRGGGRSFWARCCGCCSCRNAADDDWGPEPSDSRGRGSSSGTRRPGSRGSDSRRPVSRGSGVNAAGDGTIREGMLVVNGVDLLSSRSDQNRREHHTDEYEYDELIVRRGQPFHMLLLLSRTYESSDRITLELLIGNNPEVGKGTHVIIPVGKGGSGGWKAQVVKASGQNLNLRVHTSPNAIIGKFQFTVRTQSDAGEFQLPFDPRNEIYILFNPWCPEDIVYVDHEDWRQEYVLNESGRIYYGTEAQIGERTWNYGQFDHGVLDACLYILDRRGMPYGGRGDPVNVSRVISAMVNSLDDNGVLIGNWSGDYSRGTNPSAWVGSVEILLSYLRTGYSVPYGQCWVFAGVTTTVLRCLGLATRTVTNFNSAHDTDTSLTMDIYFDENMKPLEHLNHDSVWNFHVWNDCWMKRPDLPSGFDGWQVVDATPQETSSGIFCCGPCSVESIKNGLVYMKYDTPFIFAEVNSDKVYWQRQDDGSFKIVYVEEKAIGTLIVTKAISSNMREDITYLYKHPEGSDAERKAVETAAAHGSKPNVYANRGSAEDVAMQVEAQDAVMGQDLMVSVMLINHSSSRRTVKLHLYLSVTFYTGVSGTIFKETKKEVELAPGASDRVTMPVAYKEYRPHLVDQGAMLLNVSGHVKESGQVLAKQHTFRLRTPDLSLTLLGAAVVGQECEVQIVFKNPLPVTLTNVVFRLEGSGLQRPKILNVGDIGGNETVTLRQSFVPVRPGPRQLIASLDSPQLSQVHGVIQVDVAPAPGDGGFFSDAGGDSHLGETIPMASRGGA
UniProt Q08188, whole entry: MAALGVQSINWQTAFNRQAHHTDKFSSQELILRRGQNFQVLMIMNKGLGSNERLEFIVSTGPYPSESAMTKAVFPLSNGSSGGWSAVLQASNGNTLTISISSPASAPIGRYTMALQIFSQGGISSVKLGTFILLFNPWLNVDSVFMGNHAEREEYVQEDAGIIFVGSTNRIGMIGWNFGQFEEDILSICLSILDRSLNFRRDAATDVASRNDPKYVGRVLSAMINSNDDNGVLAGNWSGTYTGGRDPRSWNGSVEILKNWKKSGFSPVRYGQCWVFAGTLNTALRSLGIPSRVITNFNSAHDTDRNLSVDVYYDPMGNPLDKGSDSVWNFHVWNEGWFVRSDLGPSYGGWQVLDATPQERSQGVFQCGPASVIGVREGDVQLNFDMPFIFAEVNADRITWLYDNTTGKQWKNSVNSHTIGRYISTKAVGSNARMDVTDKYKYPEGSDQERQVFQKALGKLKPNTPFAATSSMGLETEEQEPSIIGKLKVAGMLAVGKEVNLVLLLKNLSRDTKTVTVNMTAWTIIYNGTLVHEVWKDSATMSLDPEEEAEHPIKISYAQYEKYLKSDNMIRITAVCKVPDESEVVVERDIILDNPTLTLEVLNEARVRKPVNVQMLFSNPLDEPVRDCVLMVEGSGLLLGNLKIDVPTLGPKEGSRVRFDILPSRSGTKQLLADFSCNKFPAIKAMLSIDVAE
UniProt P00488, 39-732 limits assumed: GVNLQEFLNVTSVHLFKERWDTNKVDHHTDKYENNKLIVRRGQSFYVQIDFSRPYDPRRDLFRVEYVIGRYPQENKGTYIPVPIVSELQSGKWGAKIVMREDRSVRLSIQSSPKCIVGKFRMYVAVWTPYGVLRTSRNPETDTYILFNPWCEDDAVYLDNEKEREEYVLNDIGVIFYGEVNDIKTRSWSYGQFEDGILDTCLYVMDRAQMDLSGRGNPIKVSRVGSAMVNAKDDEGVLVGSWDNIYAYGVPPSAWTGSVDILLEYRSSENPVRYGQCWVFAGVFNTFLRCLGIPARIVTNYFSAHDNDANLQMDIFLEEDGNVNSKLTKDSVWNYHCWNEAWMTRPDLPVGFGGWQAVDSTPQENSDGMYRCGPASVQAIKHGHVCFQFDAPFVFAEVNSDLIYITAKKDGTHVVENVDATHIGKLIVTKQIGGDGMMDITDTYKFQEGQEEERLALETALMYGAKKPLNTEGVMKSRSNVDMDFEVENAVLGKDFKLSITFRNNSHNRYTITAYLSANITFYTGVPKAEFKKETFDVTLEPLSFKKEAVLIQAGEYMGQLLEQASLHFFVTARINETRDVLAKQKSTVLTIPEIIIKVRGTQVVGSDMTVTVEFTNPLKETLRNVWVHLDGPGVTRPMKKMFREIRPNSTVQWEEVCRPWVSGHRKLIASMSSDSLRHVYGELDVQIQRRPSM

| SMILES | IC50 ([1]; tested form: bromide) [µM] | IC50 [1] [µM] | also measured |
| --- | --- | --- | --- |
| C=CC(=O)N[C@H](C)C(=O)N1CCN(C(=O)OCc2ccccc2)CC1 |  | > 100 |  |
| COC(=O)c1ccc(COC(=O)N2CCN(C(=O)CNC(=O)C[S+](C)C)CC2)cc1 |  |  | IC50 (transglutaminase 1): > 100 µM; IC50 (transglutaminase 3): > 100 µM; IC50 (Factor X111a): 100 µM |
| C=CC(=O)N[C@@H](Cc1ccccc1)C(=O)N1CCN(C(=O)OCc2ccccc2)CC1 |  | > 100 |  |

More lines, main results first:

| IC50 ([1]; tested form: bromide) [µM] | IC50 [1] [µM] | SMILES | also measured |
| --- | --- | --- | --- |
| 6.8 |  | C[C@@H](NC(=O)C[S+](C)C)C(=O)N1CCN(C(=O)OCc2ccccc2)CC1 |  |
|  | > 100 | C=CC(=O)N[C@@H](C)C(=O)N1CCN(C(=O)OCc2ccccc2)CC1 |  |
| 0.7 |  | C[C@H](NC(=O)C[S+](C)C)C(=O)N1CCN(C(=O)OCc2ccccc2)CC1 |  |

— patent US9656978B2, “Acylpiperazines as inhibitors of transglutaminase and their use in medicine” (ASTON UNIVERSITY, priority 2012, dated 2017)
